Where “and” joins values, the source holds several entries; their conditions need not be identical. Equal values may be shown once.
Molecular target: recombinant human AChE (Homo sapiens, UniProt P22303)
Assay type: biochemical
Settings: read-out: IC50 on AChE inhibition

Chains of the proteins cited; added tags and fusions are not shown. Residues count along the entry.
UniProt P22303, 32-614: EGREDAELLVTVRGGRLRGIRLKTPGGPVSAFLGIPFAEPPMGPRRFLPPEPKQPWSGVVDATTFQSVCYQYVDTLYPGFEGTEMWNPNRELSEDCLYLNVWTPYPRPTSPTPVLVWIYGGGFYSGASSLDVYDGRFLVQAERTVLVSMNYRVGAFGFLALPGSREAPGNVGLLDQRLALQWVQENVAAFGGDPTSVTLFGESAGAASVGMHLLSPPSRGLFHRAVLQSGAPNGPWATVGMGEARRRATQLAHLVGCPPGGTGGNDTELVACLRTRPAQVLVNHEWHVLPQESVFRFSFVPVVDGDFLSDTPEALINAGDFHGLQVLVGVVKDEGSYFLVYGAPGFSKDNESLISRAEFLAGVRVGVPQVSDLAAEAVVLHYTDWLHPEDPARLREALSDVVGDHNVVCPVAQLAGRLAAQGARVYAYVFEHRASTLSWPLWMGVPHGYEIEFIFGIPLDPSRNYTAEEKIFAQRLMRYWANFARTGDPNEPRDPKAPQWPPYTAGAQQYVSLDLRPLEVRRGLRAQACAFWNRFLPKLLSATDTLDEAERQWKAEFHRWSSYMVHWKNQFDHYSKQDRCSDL

C=CC[N+](C)(C)c1ccc(CCC(=O)CCc2ccc([N+](C)(C)CC=C)cc2)cc1 [BW284c51]
IC50: 91.5 nM and 113 nM and 112 nM

Reference: publication PMC6713233 (Toxicology in vitro : an international journal published in …, 2019)
